## scFv variants of Ab-95 (light chain) against a SARS-CoV-2 spike peptide

The target is the same throughout: PDVDLGDISGINAS, from the HR2 region of SARS-CoV-2 spike.

Parent scFv Ab-95: VH joined to VL by three GGGGS repeats. Changes lie in the light chain CDRs alone.
VH: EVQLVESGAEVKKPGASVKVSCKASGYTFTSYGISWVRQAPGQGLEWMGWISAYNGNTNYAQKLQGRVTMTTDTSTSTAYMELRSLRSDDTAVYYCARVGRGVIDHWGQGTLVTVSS
VL: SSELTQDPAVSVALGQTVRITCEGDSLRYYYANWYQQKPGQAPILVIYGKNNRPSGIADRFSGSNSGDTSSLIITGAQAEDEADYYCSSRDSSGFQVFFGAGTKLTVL

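Phage display of a naive human antibody library on the peptide gave the parent. AAYL52 was designed without a model: most single CDR substitutions and a random sample of double and triple ones. In AlphaSeq, yeast of one mating type display the scFv and yeast of the other type display the target. Mating (16 h, 30 °C) was followed by selection of diploids and sequencing of their barcodes. A regression on co-assayed BCL2-family reference pairs converts the normalised counts of each replicate to an apparent Kd. There are three technical replicates.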

Each variant's VL is given in full. Kd is apparent (estimated from mating counts) and averaged on the log scale over replicates with a signal. Smaller is tighter. "nd" marks a missing value. The strain was present, yet no cells mated with the target were sequenced in any replicate, which points to weak or no binding.

VL	Kd	replicates with signal	signal with controls
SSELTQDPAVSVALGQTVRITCEGDSLRYYYANWYQQKPGQAPILVIYGKNNRPQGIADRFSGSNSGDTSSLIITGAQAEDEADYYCSSRDSSGFEVFFGAGTKLTVL	230 nM	3/3	4/9
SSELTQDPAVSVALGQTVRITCEGDSLRYTYANWYQQKPGQAPILVIYGNNNRPSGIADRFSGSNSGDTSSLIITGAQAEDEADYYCSSRDSSGFQVFFGAGTKLTVL	12 nM	3/3	2/9
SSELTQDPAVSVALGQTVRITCIGDSLRYYPANWYQQKPGQAPILVIYGKNNRPSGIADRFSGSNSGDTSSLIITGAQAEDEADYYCSSRDMSGFQVFFGAGTKLTVL	40 nM	3/3	2/9
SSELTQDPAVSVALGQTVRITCEGDSLRYYYANWYQQKPGQAPILVIYDKNNRPSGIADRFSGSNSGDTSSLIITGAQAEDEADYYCSSIDSPGFQVFFGAGTKLTVL	11 µM	2/3	0/9
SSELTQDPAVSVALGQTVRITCEFDSLMYYYANWYQQKPGQAPILVIYGKNRRPSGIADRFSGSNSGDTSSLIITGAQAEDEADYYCSSRDSSGFQVFFGAGTKLTVL	920 nM	3/3	2/9
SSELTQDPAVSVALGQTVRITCEGDSLEYYYANWYQQKPGQAPILVIYGKNGRPSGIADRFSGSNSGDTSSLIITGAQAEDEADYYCSSRDSSGDQVFFGAGTKLTVL	nd	0/3	1/9
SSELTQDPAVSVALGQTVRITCEGDSLRDYYANWYQQKPGQAPILVIYGQNNRPSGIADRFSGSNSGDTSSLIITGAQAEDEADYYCSSRRSSGFQVFFGAGTKLTVL	150 nM	3/3	3/9
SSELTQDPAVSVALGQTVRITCEWDSLNYYYANWYQQKPGQAPILVIYGANNRPSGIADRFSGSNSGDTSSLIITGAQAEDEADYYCSSRDSSGFQVFFGAGTKLTVL	4.3 µM	2/3	1/9
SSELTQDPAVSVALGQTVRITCEGDSLRYYYSNWYQQKPGQAPILVIYGKNNRPSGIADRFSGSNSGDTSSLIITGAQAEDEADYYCSSRDSSAFHVFFGAGTKLTVL	1.3 µM	3/3	4/9
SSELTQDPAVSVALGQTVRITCEGDSVRNYYANWYQQKPGQAPILVIYGKNNRPSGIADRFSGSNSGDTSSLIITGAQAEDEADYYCSSRDSSGFQVFFGAGTKLTVL	110 nM	3/3	4/9
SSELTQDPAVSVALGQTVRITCEFDVLRYYYANWYQQKPGQAPILVIYGKKNRPSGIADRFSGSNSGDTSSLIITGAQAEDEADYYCSSRDSSGFQVFFGAGTKLTVL	9.6 µM	2/3	4/9
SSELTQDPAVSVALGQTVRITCEGDSLIYYYAEWYQQKPGQAPILVIYGWNNRPSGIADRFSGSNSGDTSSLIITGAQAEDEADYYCSSRDSSGFQVFFGAGTKLTVL	13 µM	2/3	0/9
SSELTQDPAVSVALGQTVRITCEGDALRYYYANWYQQKPGQAPILVIYGKNNRPNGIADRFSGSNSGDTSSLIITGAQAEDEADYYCSSPDSSGFQVFFGAGTKLTVL	300 nM	3/3	1/9
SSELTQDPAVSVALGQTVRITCEGDSLRYYLANWYQQKPGQAPILVIYWKNNRPSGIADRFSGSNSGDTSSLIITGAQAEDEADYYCSSRDSSGGQVFFGAGTKLTVL	nd	0/3	3/9
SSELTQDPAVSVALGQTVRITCEGDSLRDYRANWYQQKPGQAPILVIYGKNNRPSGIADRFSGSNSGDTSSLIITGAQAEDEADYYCSSHDSSGFQVFFGAGTKLTVL	42 nM	3/3	4/9
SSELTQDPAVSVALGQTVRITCEGSSLRYYYANWYQQKPGQAPILVIYYKNNLPSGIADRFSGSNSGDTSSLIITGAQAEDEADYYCSSRDSSGFQVFFGAGTKLTVL	2.2 µM	2/3	1/9
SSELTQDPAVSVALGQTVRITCVGDSLRYYYANWYQQKPGQAPILVIYGKNNPPSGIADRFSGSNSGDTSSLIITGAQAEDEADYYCSSRDSSGFQVFFGAGTKLTVL	4.3 µM	3/3	6/9
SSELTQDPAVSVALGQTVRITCEGDSLRYYYANWYQQKPGQAPILVIYGKNNRPSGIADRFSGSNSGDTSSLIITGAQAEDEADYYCSSEDSSGFHVDFGAGTKLTVL	790 nM	3/3	5/9
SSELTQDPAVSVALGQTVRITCWGDSLRYYYANWYQQKPGQAPILVIYGGNCRPSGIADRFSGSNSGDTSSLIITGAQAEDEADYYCSSRDSSGFQVFFGAGTKLTVL	27 µM	2/3	4/9
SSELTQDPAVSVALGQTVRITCEGDSLRYYFANWYQQKPGQAPILVIYGKNNRPSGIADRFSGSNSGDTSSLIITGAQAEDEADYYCSSHDSSGFDVFFGAGTKLTVL	970 nM	1/3	2/9
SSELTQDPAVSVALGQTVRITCEGDSLRYYGANWYQQKPGQAPILVIYGKNNRPSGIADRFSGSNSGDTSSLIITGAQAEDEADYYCSSRDSSGFPVFFGAGTKLTVL	150 nM	3/3	4/9
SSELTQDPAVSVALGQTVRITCEGDSLRYYYANWYQQKPGQAPILVIYGKNNRPSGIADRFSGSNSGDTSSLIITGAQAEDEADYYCSSRDSSGFQDRFGAGTKLTVL	69 nM	3/3	1/9
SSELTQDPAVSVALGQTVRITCEGDCLRNYYANWYQQKPGQAPILVIYGKNNRPSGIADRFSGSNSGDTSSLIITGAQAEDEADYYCSSFDSSGFQVFFGAGTKLTVL	5.7 µM	3/3	4/9
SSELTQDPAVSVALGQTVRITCEGDSLRSYYANWYQQKPGQAPILVIYGKCNRPSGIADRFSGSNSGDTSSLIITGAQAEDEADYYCSSRDSKGFQVFFGAGTKLTVL	11 µM	2/3	5/9
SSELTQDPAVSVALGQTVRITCEGDSLRYYYANWYQQKPGQAPILVIYGKNCRPPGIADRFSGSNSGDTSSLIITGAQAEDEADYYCSSSDSSGFQVFFGAGTKLTVL	140 µM	1/3	4/9
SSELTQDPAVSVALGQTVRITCEGDSLRYYYAIWYQQKPGQAPILVIYGKNNRPSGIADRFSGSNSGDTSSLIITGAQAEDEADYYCSSRDSSFEQVFFGAGTKLTVL	26 µM	1/3	6/9

Picked from the list: the 2 lowest averages where every replicate gave a value.

{"VL": "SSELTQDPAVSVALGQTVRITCEGDSLRYTYANWYQQKPGQAPILVIYGNNNRPSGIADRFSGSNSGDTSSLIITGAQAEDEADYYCSSRDSSGFQVFFGAGTKLTVL", "Kd": "12 nM", "replicates with signal": "3/3", "signal with controls": "2/9"}
{"VL": "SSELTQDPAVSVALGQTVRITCIGDSLRYYPANWYQQKPGQAPILVIYGKNNRPSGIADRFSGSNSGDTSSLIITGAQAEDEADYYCSSRDMSGFQVFFGAGTKLTVL", "Kd": "40 nM", "replicates with signal": "3/3", "signal with controls": "2/9"}

As a blank, each scFv also met three strains without target: over library AAYL52, 28% of these pairings were detected, typically at 8.2 µM and seldom below 800 nM. For each scFv, signals with the empty controls are counted beside the result. For reference, the parent read 200 nM as the reference entry and 180 nM as a member of this library.

The measurements come from Engelhart et al. 2022 (doi:10.1038/s41597-022-01779-4) through the FLAb antibody collection.